Results taken from paper PMC11284600, “Many human pharmaceuticals are weak inhibitors of the cytochrome P450 system in rainbow trout (Oncorhynchus mykiss) liver S9 fractions” (Frontiers in Toxicology, 2024).

System: CYP1A-like EROD activity
Test: EROD inhibition in RT-S9 (IC50 shift assay)
Settings: both, Christophersen, Bornhoeved, rainbow trout (Oncorhynchus mykiss), s9, pH 7.8, EROD inhibition in RT-S9, IC50 shift (A/C), IC50 Protocol A / IC50 Protocol C

Work on COc1cc2nc(N3CCN(C(=O)c4ccco4)CC3)nc(N)c2cc1OC [Prazosin, prazosin hydrochloride] yielded an IC50 shift at 10 min of 0.6.

Where a name gives a salt, the structure may show the parent alone.
